# Experimental data reported in ChEMBL document CHEMBL1152717, “Discovery of mu-opioid selective ligands derived from 1-aminotetralin scaffolds made via metal-catalyzed ring-opening reactions” (Bioorg Med Chem Lett, 2009).
# By UniProt entry, the sequences of proteins in these tests, tags left out.
# UniProt P35372, whole entry, looked up: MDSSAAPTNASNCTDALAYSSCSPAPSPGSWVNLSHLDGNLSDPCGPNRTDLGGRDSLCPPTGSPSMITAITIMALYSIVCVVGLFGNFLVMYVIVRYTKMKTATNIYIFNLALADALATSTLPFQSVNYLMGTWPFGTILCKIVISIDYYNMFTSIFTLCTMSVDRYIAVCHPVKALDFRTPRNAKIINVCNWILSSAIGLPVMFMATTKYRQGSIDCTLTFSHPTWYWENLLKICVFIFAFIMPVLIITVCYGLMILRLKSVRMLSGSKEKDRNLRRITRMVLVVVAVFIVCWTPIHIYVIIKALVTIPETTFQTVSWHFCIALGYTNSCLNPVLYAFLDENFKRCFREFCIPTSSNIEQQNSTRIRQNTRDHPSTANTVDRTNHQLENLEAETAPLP
# Molecular target: Mu-type opioid receptor (Homo sapiens, UniProt P35372)
# Conditions: at 100 µM
row,Structure (SMILES),Emax [%]
1,COCCN(C(=O)COc1ccc(Cl)cc1)C1c2cc(OC)c(OC)cc2CCC1N(C)C (configuration not stated),0
2,COCCN(C(=O)Cc1ccc(Cl)cc1)C1c2cc(OC)c(OC)cc2CCC1N(C)C (configuration not stated),0
